This is a selection; strong and weak results do not stand in their true shares. Some salts and complexes are drawn in separate pieces, as the source files them; their charges need not balance. Calls of active or inactive are those of the source. No stated cut-off is given here; in the data, active means inhibition above about 40%; inactive means the rest.

Sequences of proteins named here, by UniProt entry; tags and fusion partners are left off.
UniProt Q9Y4P1, whole entry: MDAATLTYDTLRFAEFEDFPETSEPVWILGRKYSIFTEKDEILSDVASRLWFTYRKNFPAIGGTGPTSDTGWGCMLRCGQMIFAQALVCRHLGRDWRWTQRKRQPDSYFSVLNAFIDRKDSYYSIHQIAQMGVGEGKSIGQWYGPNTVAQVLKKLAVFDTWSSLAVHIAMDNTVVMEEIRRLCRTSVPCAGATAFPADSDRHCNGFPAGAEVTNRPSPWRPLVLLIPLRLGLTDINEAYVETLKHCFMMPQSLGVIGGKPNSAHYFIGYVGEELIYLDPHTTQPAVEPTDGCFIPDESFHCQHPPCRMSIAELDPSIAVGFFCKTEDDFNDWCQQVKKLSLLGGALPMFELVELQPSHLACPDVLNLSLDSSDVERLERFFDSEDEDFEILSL

This assay has as its target Cysteine protease ATG4B (Homo sapiens) (UniProt Q9Y4P1). In words: ATG4B protease inhibitors, primary screen, biochemical, fluorescence, uHTS (AID 504462). To be noted: ATG4B cleavage of LC3-PLA2, NBD-HPC fluorescence, 1 h; at 8.33 µM; stronger effect = higher value.
With `Nc1ccc2c(ccc3cccnc32)n1.O=[N+]([O-])c1cc([N+](=O)[O-])c(O)c([N+](=O)[O-])c1`, the inhibition was inactive: -7.82%.
Consider `CCOC(=O)c1ccc(NP(C)(=O)Oc2ccc(Cl)cc2)cc1` (configuration not stated), for which the inhibition is inactive: -7.79%.
For the compound `CP(=O)(OC12CC3CC(CC(C3)C1)C2)OC12CC3CC(CC(C3)C1)C2`, the inhibition was inactive: -5.26%.
Take `COc1ccccc1OP(C)(=O)Nc1ccccc1Br` (configuration not stated): the inhibition was inactive: 0.79%.
For `CC(C)(C)c1ccc(OP(C)(=O)O)cc1`, the inhibition was inactive: 2.26%.
Take `CP(=O)(Nc1ccc(Cl)cc1)Oc1ccc(F)cc1` (configuration not stated): the inhibition is inactive: -0.73%.
`CN(C)C(=O)c1c([N+](=O)[O-])cc([N+](=O)[O-])cc1[N+](=O)[O-]`: the inhibition is inactive: -3.29%.
The figure for `COc1ccc(OP(C)(=O)Nc2ccc(Br)cc2)cc1` (configuration not stated) is inactive: 0.25%; for `CCN(CC)CC(O)COC(=O)C(O)(c1ccccc1)C1CCCCC1` (configuration not stated) it is inactive: -3.4%.
Turning to `O=C(OCCCN1CCCC1)C(O)(c1ccccc1)C1CCCCC1` (configuration not stated), the inhibition was inactive: 6.77%.
Regarding `COc1ccccc1OP(C)(=O)Nc1c(C)n(C)n(-c2ccccc2)c1=O` (configuration not stated), the inhibition is inactive: -9.11%.
As to `CCc1ccc(OP(C)(=O)Nc2cccnc2)cc1` (configuration not stated), the inhibition is inactive: 6.75%.
With `CP(=O)(Oc1ccccc1)N1CCOC1=O` (configuration not stated), the inhibition is inactive: -9.67%.
For the compound `Cc1c(NP(C)(=O)Oc2ccc(C(C)C)cc2)c(=O)n(-c2ccccc2)n1C` (configuration not stated), the inhibition is inactive: -12.3%.
With `O=[N+]([O-])c1cc([N+](=O)[O-])c(Nc2ccccn2)c([N+](=O)[O-])c1`, the inhibition was inactive: -6.27%.
In the case of `COc1ccccc1OP(C)(=O)Nc1ccc(C)cc1C` (configuration not stated), the inhibition was inactive: -7.74%.
With `CP(=O)(Nc1ccccn1)Oc1ccccc1` (configuration not stated), the inhibition was inactive: -3.22%.
The figure for `CCc1ccc(OP(C)(=O)O)cc1` is inactive: -7.86%.
Turning to `COc1ccccc1OP(C)(=O)Nc1ccc(Br)cc1` (configuration not stated), the inhibition was inactive: 8.06%.
With `COc1ccc(OP(C)(=O)Nc2ccccn2)cc1` (configuration not stated), the inhibition was inactive: -3.84%.
With `CN(C)CCOC(=O)C(O)(c1ccccc1)C1CCCC1` (configuration not stated), the inhibition is inactive: -1.58%.
As to `CCCCCCCCCCCCCCCC1C[N+](C)(C)CCOP(C)(=O)O1` (configuration not stated), the inhibition was inactive: 36.4%.
Consider `CP(=O)(Nc1ccc(Cl)cc1Cl)Oc1ccccc1` (configuration not stated), for which the inhibition is inactive: 4.77%.
The figure for `CP(=O)(OCCOc1ccccc1)OCCOc1ccccc1` is inactive: -1.56%; for `Cc1cc(C)cc(OP(C)(=O)Nc2cccc(C(F)(F)F)c2)c1` (configuration not stated) it is inactive: 11.6%.
As to `O=C1C(O)=C([N+](=O)[O-])C(=O)C(O)=C1[N+](=O)[O-]`, the inhibition was inactive: -0.89%.
The figure for `COc1ccccc1OP(C)(=O)Nc1ccc(C)c(C)c1` (configuration not stated) is inactive: 1.05%; for `COc1ccc(OP(C)(=O)Nc2ccccc2Br)cc1` (configuration not stated) it is inactive: 2.02%.
For `Cc1c([N+](=O)[O-])cc([N+](=O)[O-])c(Br)c1[N+](=O)[O-]`, the inhibition is inactive: 5.57%.
For the compound `CCN(CC)CCCOC(=O)C(O)(c1ccccc1)C1CCCCC1` (configuration not stated), the inhibition was inactive: -8.11%.
Consider `CP(=O)(Nc1ccccc1)Oc1ccc(F)cc1` (configuration not stated), for which the inhibition was inactive: 2.73%.
Regarding `CCCCCOc1ccc(NP(C)(=O)Oc2ccc(Cl)cc2Cl)cc1` (configuration not stated), the inhibition is inactive: -0.86%.
`O=[N+]([O-])c1cc([N+](=O)[O-])c(OC2CCCCC2O)c([N+](=O)[O-])c1` (configuration not stated): the inhibition is inactive: 4.29%.
As for `CCOC(=O)c1ccc(NP(C)(=O)Oc2ccc(F)cc2)cc1` (configuration not stated), the inhibition is inactive: 13.6%.
For `COc1ccc(OP(C)(=O)Nc2ccc(SC(F)(F)F)cc2)cc1` (configuration not stated), the inhibition is inactive: -9.02%.
As for `O=C(OC1CN2CCC1CC2)c1ccc([N+](=O)[O-])cc1` (configuration not stated), the inhibition was inactive: -5.44%.
In the case of `O=C(OCCN1CCN(CCOCc2ccccc2)CC1)C(O)(c1ccccc1)c1ccccc1`, the inhibition is inactive: -9.74%.
Consider `COc1ccc2c(c1O)-c1c(O)c(OC)cc3c1[C@H](C2)[N+](C)(C)CC3.O=[N+]([O-])c1cc([N+](=O)[O-])c([O-])c([N+](=O)[O-])c1[O-]`, for which the inhibition is inactive: -3.68%.
Consider `CP(=O)(Nc1ccccc1F)Oc1ccccc1` (configuration not stated), for which the inhibition is inactive: 7.42%.
Take `CC(C)c1ccc(OP(C)(=O)Nc2ccc(SC(F)(F)F)cc2)cc1` (configuration not stated): the inhibition was inactive: -4.74%.
Take `CP(=O)(Nc1ccc2c(c1)OCCO2)Oc1ccccc1` (configuration not stated): the inhibition was inactive: -2.9%.
Regarding `Cc1ccccc1NP(C)(=O)Nc1ccccc1C`, the inhibition is inactive: -10.2%.
As to `CP(=O)(Nc1ccc(SC(F)(F)F)cc1)Oc1ccc(F)cc1` (configuration not stated), the inhibition is inactive: -8.3%.
As for `CCOP(C)(=S)SCC(=O)NC(C)(CC)C(=O)O` (configuration not stated), the inhibition was inactive: -1.1%.
The figure for `O=[N+]([O-])c1ccc(OP2(=O)COCCO2)cc1` (configuration not stated) is inactive: 0.05%; for `O=[N+]([O-])c1cc([N+](=O)[O-])c(NCC2CCS(=O)(=O)C2)c([N+](=O)[O-])c1` (configuration not stated) it is inactive: -6.14%; for `Cc1cc(-c2cccc3ccccc23)c(C)cn1.O=[N+]([O-])c1cc([N+](=O)[O-])c(O)c([N+](=O)[O-])c1` it is inactive: 3.81%.
The figure for `Cc1c(C(c2ccc3c(c2)OCO3)c2c(C)n(C)n(-c3ccccc3)c2=O)c(=O)n(-c2ccccc2)n1C.O=[N+]([O-])c1cc([N+](=O)[O-])c(O)c([N+](=O)[O-])c1` is inactive: 3.9%; for `COc1ccc(OP(C)(=O)Nc2cccc(Br)c2)cc1` (configuration not stated) it is inactive: -9.68%; for `CN(C)CCOC(=O)C(O)(c1ccccc1)C1CCCCC1` (configuration not stated) it is inactive: 9.43%.
Take `COc1ccc(NP(C)(=O)Oc2ccccc2OC)cc1` (configuration not stated): the inhibition is inactive: -9.12%.
For the compound `CN1CCCCC1COC(=O)C1(O)c2ccccc2CCc2ccccc21` (configuration not stated), the inhibition is inactive: -3.66%.
Consider `COc1ccccc1OP(C)(=O)Nc1c(C)cccc1C` (configuration not stated), for which the inhibition was inactive: -0.46%.
Turning to `CCCOc1ccc(NP(C)(=O)Oc2ccc(Cl)cc2)cc1` (configuration not stated), the inhibition is inactive: -2.49%.
Take `CP(=O)(Nc1ccc(SC(F)(F)F)cc1)Oc1ccccc1` (configuration not stated): the inhibition is inactive: -1.55%.
Take `CCOC(=O)C(CC)C1=NC(C)(C)Cc2ccccc21.O=[N+]([O-])c1cc([N+](=O)[O-])c(O)c([N+](=O)[O-])c1` (configuration not stated): the inhibition is inactive: -3.82%.
As to `CC1=C2N=C(C=C3N=C(C(C)=C4[N-][C@@](C)([C@@H]5N=C1[C@](C)(CCC(=O)NC[C@@H](C)OP(=O)([O-])O[C@H]1[C@@H](O)[C@@H](n6cnc7cc(C)c(C)cc76)O[C@@H]1CO)[C@H]5CC(N)=O)[C@@](C)(CC(N)=O)[C@@H]4CCC(N)=O)[C@@](C)(CC(N)=O)[C@@H]3CCC(N)=O)C(C)(C)[C@@H]2CCC(N)=O.[C-]#N.[Co+3]`, the inhibition is inactive: 0.86%.

As a reminder, the inhibition is the change of the read-out against control, counted positive when it falls.

The record behind these values is PubChem BioAssay AID504462 (Sanford-Burnham Center for Chemical Genomics, 2011).
